{
  "source": "ChEMBL document CHEMBL1155410",
  "about": "“Structure-based design and synthesis of novel P2/P3 modified, non-peptidic beta-secretase (BACE-1) inhibitors” (Bioorg Med Chem Lett, 2010)",
  "key": {"[1]": {"assay": "Selectivity ratio for BACE1 over BACE2"}, "[2]": {"assay": "Selectivity ratio for BACE1 over Cathepsin D"}},
  "data": [
    {"smiles": "CC(C)c1cccc(CNC[C@H](O)[C@H](Cc2ccccc2)NC(=O)[C@@H]2CCC[C@H](C(C)(C)N3CCCCC3=O)C2)c1", "values": [
      {"measurement": "Selectivity ratio", "setting": "[1]", "value": 50},
      {"measurement": "Selectivity ratio", "setting": "[2]", "value": 50}
    ]}
  ]
}
